Source: PubChem BioAssay
miR122 inh – miR-122 inhibition in Huh7 cells; activation (reporter increase), % at 12.5 µM; Huh7 miR-122 Renilla luciferase sensor, 48 h; neutral wells = 0, positive control = 100; 0.3% of 340,000 active;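 active means mean replicate activation score at least 90 and every replicate individually at or above 90; inconclusive means only one of the two criteria met; inactive means neither criterion met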;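 further: higher luciferase means less miR-122 activity so hits act as miR-122 inhibitors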
Yeast UUG start – alters start codon recognition fidelity in yeast; S. cerevisiae UUG-firefly luciferase reporter, luminescence/redox ratio; activity score, % at 18.7 µM; actives 0.13% (n = 350,000); AID 602363;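 active = replicate mean at a twofold rise or more, about +100% in these data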;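 also: firefly luciferase made from a UUG start codon reports start codon fidelity; reporter light over untreated wells divided by growth signal over untreated wells; some hits fall short of that in this replicate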
Wnt act – Wnt/beta-catenin pathway activation; Wnt/beta-catenin reporter cell assay, activator, plate reader; activation, % at 9.35 µM; 1.2% of 300,000 active; in the data active means activation above about 30%, passing the limit was not always enough; inconclusive means no clear call, values can overlap the other calls
esBAF inh – SWI/SNF esBAF complex inhibition; reporter increase, % at 12.5 µM; 2% of 350,000 active; mouse ES cells, Bmi1-luciferase knock-in reporter, 24 h; 100% = twice the neutral-well signal; in the data active means activation above about 40%; inconclusive means no clear call, values can overlap the other calls;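 further: a rise in the Bmi1 reporter signal indicates esBAF inhibition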
MITF TRPM1 HTS – activators of MITF-driven TRPM1 promoter activity in SK-MEL-5 cells. SK-MEL-5 TRPM1-promoter luciferase, 24 h; % of positive control, neutral wells = 0. activation, % at 12.5 µM. 0.75% of 300,000 active;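 active means mean activation of at least 80% with every replicate also reaching 80%; inconclusive means mean reaches 80% but some replicate falls short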
PglD DTNB – blocks C. jejuni PglD acetyltransferase activity; purified PglD enzyme, DTNB colorimetric CoA detection; inhibition, % at 12.5 µM; 0.098% of 360,000 active; in the data active means inhibition above about 16%, passing the limit was not always enough; inconclusive means no clear call, values can overlap the other calls
Large screens that a line does not name were inactive. In the library only some 2.8% were active in any assay of this set; here they are far more common.

Cc1ccc(S(=O)(=O)Nc2ccc3c(c2)C(=O)N([C@H](C)CO)C[C@@H](C)[C@@H](CN(C)Cc2ccccc2)OCCCC[C@H](C)O3)cc1	none (no result: Wnt act, MITF TRPM1 HTS)
COc1ccc(S(=O)(=O)Nc2ccc3c(c2)C(=O)N([C@H](C)CO)C[C@H](C)[C@@H](CN(C)C(=O)Cc2ccccc2)OCCCC[C@H](C)O3)cc1	none (no result: Wnt act, MITF TRPM1 HTS)
COc1ccc2c(c1)C(C)=CC(C)(C)N2S(=O)(=O)c1ccc(NC(C)=O)cc1	none (no result: MITF TRPM1 HTS)
COc1ccc2c(c1)C(C)=CC(C)(C)N2S(=O)(=O)c1ccc(Br)cc1	miR122 inh 114.0 (no result: Yeast UUG start, PglD DTNB)
O=C(c1cccnc1)N1CC[C@@H]2[C@H](CO)Nc3ccc(-c4cccc(F)c4)cc3[C@@H]21	none (no result: Wnt act, MITF TRPM1 HTS)
O=C(O)c1cccc(CN2C(=O)SC(Nc3cccc4ccccc34)C2=O)c1 (centres undefined)	Wnt act 40.2
O=C(CSc1n[nH]c(=O)n1C1CC1)c1ccc2c(c1)OCCO2	Wnt act 38.0 (no result: esBAF inh, MITF TRPM1 HTS)
O=C(CSc1n[nH]c(=O)n1Cc1ccco1)c1ccc2c(c1)OCCO2	none
O=C(Nc1ccc(F)cc1)c1ccc2snnc2c1	esBAF inh 45.2 (no result: miR122 inh)
CCOc1ccc(NC(=O)c2ccc3snnc3c2)cc1	esBAF inh 54.2 (no result: MITF TRPM1 HTS)
Cc1ccc(NC(=O)c2ccc3snnc3c2)cc1C	esBAF inh inconclusive
COc1cccc(NC(=O)c2ccc3snnc3c2)c1	none (no result: Yeast UUG start, Wnt act, esBAF inh, PglD DTNB)
CNC(=O)C[C@H]1CC[C@@H]2[C@@H](COc3ccc(NS(=O)(=O)c4ccc(F)cc4)cc3C(=O)N2C)O1	none (no result: Wnt act, MITF TRPM1 HTS)
COc1cc2ccccc2cc1C(=O)Nc1cccnc1	esBAF inh 47.6
COc1cc2ccccc2cc1C(=O)Nc1ccc(C)cn1	Wnt act 35.0, esBAF inh inconclusive (no result: miR122 inh)
C[C@H]1CN([C@@H](C)CO)C(=O)c2cc(NS(=O)(=O)c3cn(C)cn3)ccc2O[C@@H]1CN(C)S(C)(=O)=O	none (no result: Wnt act, MITF TRPM1 HTS)
Cn1c(CCNC(=O)c2ccco2)nc2cc(NC(=O)c3ccco3)ccc21	Wnt act 39.4, esBAF inh 51.4 (no result: MITF TRPM1 HTS)
Cn1c(CCNC(=O)c2ccco2)nc2cc(NC(=O)c3ccccc3)ccc21	Wnt act 31.6, esBAF inh 45.5, MITF TRPM1 HTS 89.0 (no result: miR122 inh)
Cc1cc(C(=O)Nc2ccc3c(c2)C(=O)N(C)[C@H]2CC[C@H](CC(=O)N[C@H](C)c4ccccc4)O[C@H]2CO3)no1	none (no result: Wnt act, MITF TRPM1 HTS)
CCOC(=O)c1sc2nc3n(c(=O)c2c1C)CCCCC3	esBAF inh 68.1, MITF TRPM1 HTS inconclusive (no result: Wnt act)
CC(=O)c1cccc(NC(=O)c2sc3nc4n(c(=O)c3c2C)CCCCC4)c1	none
Cc1c(C(=O)Nc2cc(F)ccc2F)sc2nc3n(c(=O)c12)CCCCC3	esBAF inh 70.9
CSc1cccc(NC(=O)c2sc3nc4n(c(=O)c3c2C)CCC4)c1	esBAF inh 53.7, MITF TRPM1 HTS inconclusive (no result: miR122 inh)
C[C@H]1CN([C@@H](C)CO)C(=O)c2cc(NC(=O)Nc3cccc4ccccc34)ccc2O[C@@H]1CN(C)CC1CCCCC1	none (no result: Wnt act, MITF TRPM1 HTS)
O=C(COC(=O)Cn1cnc2ccccc21)Nc1cc(S(=O)(=O)N2CCOCC2)ccc1Cl	none
O=C(COC(=O)Cn1cnc2ccccc21)Nc1cc2c(cc1Cl)C(=O)c1ccccc1C2=O	esBAF inh 52.1
COc1ccc(C(=O)c2ccc(-c3ccc(OC)cc3)nc2)cc1	none
O=C(c1ccc(F)cc1)c1ccc(-c2ccc(F)cc2)nc1	esBAF inh 43.8
C[C@@H]1CN([C@@H](C)CO)C(=O)c2ccccc2-c2ccccc2CO[C@H]1CN(C)C(=O)N[C@H](C)c1ccccc1	none (no result: miR122 inh, Yeast UUG start, Wnt act, MITF TRPM1 HTS)
Cc1ccc(-c2cn3cccc(C)c3n2)cc1	none (no result: miR122 inh, Yeast UUG start, esBAF inh, PglD DTNB)
COc1ccc(-c2cn3cccc(C)c3n2)cc1F	Wnt act 33.1, MITF TRPM1 HTS 91.5 (no result: miR122 inh, Yeast UUG start, esBAF inh, PglD DTNB)
COc1ccc(-c2cn3cccnc3n2)cc1NC(=O)C(C)C	none
COc1ccc(-c2cn3cccnc3n2)cc1Br	MITF TRPM1 HTS 81.3 (no result: miR122 inh, Yeast UUG start, esBAF inh, PglD DTNB)
CNc1cc(-c2ccc(CC#N)cc2)ncn1	esBAF inh 50.4 (no result: MITF TRPM1 HTS)
C[C@H](CO)N1C[C@H](C)[C@@H](CN(C)Cc2ccc(Cl)c(Cl)c2)Oc2ccc(NS(=O)(=O)c3cn(C)cn3)cc2C1=O	none (no result: Wnt act, MITF TRPM1 HTS)
O=C(N/N=C\c1ccc(F)cc1)c1csnn1	esBAF inh 44.1 (no result: Wnt act)
Cc1ccccc1/C=N\NC(=O)c1csnn1	none (no result: MITF TRPM1 HTS)
O=C(N/N=C/c1ccccc1)c1cccc2ccccc12	none (no result: miR122 inh, Yeast UUG start, esBAF inh, PglD DTNB)
CSc1ccc(/C=N/NC(=O)c2cc(O)cc(O)c2)cc1	Wnt act 34.5
Nc1c(C(=O)N/N=C/c2ccccc2)cnn1-c1ccccc1	esBAF inh 48.5
O=C(N/N=C/c1ccc(F)cc1)c1ccccc1	Wnt act 33.9 (no result: miR122 inh, Yeast UUG start, esBAF inh, PglD DTNB)
CSc1ccc(/C=N/NC(=O)c2ccc(C)c(C)c2)cc1	none (no result: esBAF inh)
C[C@H]1CN([C@@H](C)CO)C(=O)c2cc(NC(=O)C3CC3)ccc2O[C@@H]1CN(C)Cc1ccc(C(F)(F)F)cc1	none (no result: Wnt act, MITF TRPM1 HTS)
COc1cccc(NC(=O)N(C)C[C@H]2Oc3cc(C#CC4(O)CCCC4)ccc3S(=O)(=O)N([C@@H](C)CO)C[C@H]2C)c1	none (no result: Yeast UUG start, Wnt act, MITF TRPM1 HTS)
O=C(N/N=C/c1ccccc1C(F)(F)F)c1ccc(O)cc1	MITF TRPM1 HTS 85.7 (no result: miR122 inh, Yeast UUG start, esBAF inh, PglD DTNB)
Cc1ccc(-c2cnc3c(c2)C(=O)N([C@H](C)CO)C[C@@H](C)[C@H](CN(C)C(=O)c2ccccc2)O3)cc1	none (no result: Wnt act, MITF TRPM1 HTS)
CCN(C[C@@H]1N[C@@H](CO)[C@H]1c1ccc(-c2ccccc2)cc1)C(=O)COC	none (no result: Wnt act, MITF TRPM1 HTS)
Cc1ccc(/C=N/Nc2cccc3cccnc23)c(O)c1	none (no result: PglD DTNB)
Oc1ccc(/C=N/Nc2cccc3cccnc23)c(O)c1	esBAF inh 78.8 (no result: Wnt act)
Cc1cc(C)cc(NS(=O)(=O)c2csc(C(N)=O)c2)c1	none (no result: miR122 inh, Yeast UUG start, PglD DTNB)
Cc1ccc(NS(=O)(=O)c2csc(C(N)=O)c2)cc1C	miR122 inh 99.0
CC(C)(C)OC(=O)N1CCC(C(=O)Nc2ccc3c(c2)CCC3)CC1	esBAF inh 74.5, MITF TRPM1 HTS inconclusive
Cc1ccc(NC(=O)C2CCCN(c3nccc(C)n3)C2)c(C)c1 (centres undefined)	none
CC(=O)N1CCC(C(=O)Nc2ccc3c(c2)CCC3)CC1	none (no result: esBAF inh)
O=C(Nc1ccc2c(c1)CCC2)C1CCCN(c2ncccn2)C1 (centres undefined)	esBAF inh 62.0, MITF TRPM1 HTS 85.7 (no result: Wnt act)
Cc1ccc(NC(=O)C2CCCN(c3ncccn3)C2)c(C)c1 (centres undefined)	esBAF inh 50.6
Cc1ccccc1S(=O)(=O)N1C[C@@H](O)COC[C@H]2O[C@H](CC(=O)N3CCOCC3)CC[C@@H]21	none (no result: Wnt act, MITF TRPM1 HTS)
CN1CCN(C(=O)C[C@H]2C[C@@H]3c4cc(NC(=O)c5ccc6c(c5)OCO6)ccc4O[C@@H]3[C@H](CO)O2)CC1	none (no result: Yeast UUG start, Wnt act, MITF TRPM1 HTS)
C[C@@H]1CN([C@H](C)CO)C(=O)Cc2cc(NC(=O)CCCN(C)C)ccc2O[C@@H]1CN(C)S(=O)(=O)c1ccccc1	none (no result: Wnt act, MITF TRPM1 HTS)
Cc1ccc(NC(=S)NNC(=S)Nc2cccc(C(F)(F)F)c2)cc1	Wnt act 39.8 (no result: esBAF inh, MITF TRPM1 HTS)
Cn1c2ccccc2c(=O)c2ccc(NCCc3cccs3)cc21	Wnt act inconclusive, esBAF inh inconclusive, MITF TRPM1 HTS 94.6
